Molecular target: placental alkaline phosphatase (ALPP), human
Assay: PLAP enzyme inhibitors, confirmation, biochemical, luminescence (AID 1512)
Conditions: purified PLAP enzyme, luminescent substrate read-out

| IC50 [µM] | Structure (SMILES) |
| --- | --- |
| 15.8 | O=C(Cn1cnc(Br)c1)c1ccc(O)c(O)c1 |
| 2.51 | Cc1nc2ccccc2n1CC(=O)c1ccc(O)c(O)c1 |
| 13.4 | O=C(Cn1cnnc1)c1ccc(O)c(O)c1 |

Reference: PubChem BioAssay AID1512 (Sanford-Burnham Center for Chemical Genomics, 2009)
